From US20210094899A1, “ACRYLIC ACID ANALOGS” (Recurium IP Holdings, LLC, priority 2017, published 2021)

Sequences of proteins named here, by UniProt entry; tags and fusion partners are left off.
UniProt P03372, whole entry: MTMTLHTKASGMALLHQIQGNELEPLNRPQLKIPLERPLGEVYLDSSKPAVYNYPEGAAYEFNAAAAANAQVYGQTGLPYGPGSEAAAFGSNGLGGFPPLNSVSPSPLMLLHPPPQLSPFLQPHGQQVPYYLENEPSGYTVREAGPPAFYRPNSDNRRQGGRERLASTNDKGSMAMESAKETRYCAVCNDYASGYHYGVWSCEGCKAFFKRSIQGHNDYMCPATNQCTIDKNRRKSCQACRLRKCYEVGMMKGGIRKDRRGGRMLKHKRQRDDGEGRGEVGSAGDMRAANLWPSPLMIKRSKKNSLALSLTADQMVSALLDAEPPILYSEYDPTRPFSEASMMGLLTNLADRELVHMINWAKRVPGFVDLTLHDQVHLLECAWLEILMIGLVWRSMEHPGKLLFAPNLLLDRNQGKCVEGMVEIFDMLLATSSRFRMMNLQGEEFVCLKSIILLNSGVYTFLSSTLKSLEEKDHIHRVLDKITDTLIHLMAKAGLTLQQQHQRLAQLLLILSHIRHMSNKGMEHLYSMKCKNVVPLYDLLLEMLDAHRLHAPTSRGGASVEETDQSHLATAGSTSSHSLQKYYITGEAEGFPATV

Target: T1, ERα (ESR1 protein) (Homo sapiens, UniProt P03372)
T1 construct: After incubating cells with the indicated compounds for 18-24 hours, cell lysates were prepared; endogenous in cells; host or cells: MCF-7
Test: ERα EC50 determination (Western blot band density, MCF-7 cells)
Assay type: cell-based
Source text: A DMSO control was included to enable a determination of the relative efficacy of test compounds. […] The protein concentration was quantified using BCA kit.

C[C@@H]1Cc2c([nH]c3ccccc23)[C@@H](c2c(F)cc(/C=C/C(=O)O)cc2F)N1CC(C)(C)F [AZD9496]
EC50: < 25 nM
